Test results as given in ChEMBL document CHEMBL3259614, “Design, synthesis, and structure-activity relationship studies of novel fused heterocycles-linked triazoles with good activity and water solubility” (J Med Chem, 2014).

Tests used:
[1] = tested on: Candida albicans; assay: Ratio of fluconazole MIC to compound MIC for fluconazole-resistant Candida albicans 103 after 24 hrs by serial dilution method; type: functional
[2] = tested on: Candida albicans; assay: Ratio of fluconazole MIC to compound MIC for fluconazole-resistant Candida albicans J18 after 24 hrs by serial dilution method; type: functional
[3] = tested on: Hepatocyte; assay: Cytotoxicity against rat hepatocytes assessed as reduction in survival rate at 5 to 40 uM after 48 hrs by SRB assay; type: cell-based
[4] = tested on: Candida albicans; assay: Ratio of fluconazole MIC to compound MIC for fluconazole-resistant Candida albicans 100 after 24 hrs by serial dilution method; type: functional

## C[C@@H](N1CCn2nc(-c3ccc(C#N)nc3)nc2C1)[C@](O)(Cn1cncn1)c1ccc(F)cc1F
[1]
  Ratio: 16
[2]
  Ratio: 16
[3]
  Activity: Non-toxic
[4]
  Ratio: 16
